Laboratory results from ChEMBL document CHEMBL1127082, “3,4-Dihydroxychalcones as potent 5-lipoxygenase and cyclooxygenase inhibitors” (J Med Chem, 1993).

Tests used:
[1] = molecular target: T1, Polyunsaturated fatty acid 5-lipoxygenase (Rattus norvegicus, UniProt P12527); test: In vitro inhibition against 5-lipoxygenase in RBL-1 cells was determined; assay type: cell-based
T1 sequence (P12527 whole entry): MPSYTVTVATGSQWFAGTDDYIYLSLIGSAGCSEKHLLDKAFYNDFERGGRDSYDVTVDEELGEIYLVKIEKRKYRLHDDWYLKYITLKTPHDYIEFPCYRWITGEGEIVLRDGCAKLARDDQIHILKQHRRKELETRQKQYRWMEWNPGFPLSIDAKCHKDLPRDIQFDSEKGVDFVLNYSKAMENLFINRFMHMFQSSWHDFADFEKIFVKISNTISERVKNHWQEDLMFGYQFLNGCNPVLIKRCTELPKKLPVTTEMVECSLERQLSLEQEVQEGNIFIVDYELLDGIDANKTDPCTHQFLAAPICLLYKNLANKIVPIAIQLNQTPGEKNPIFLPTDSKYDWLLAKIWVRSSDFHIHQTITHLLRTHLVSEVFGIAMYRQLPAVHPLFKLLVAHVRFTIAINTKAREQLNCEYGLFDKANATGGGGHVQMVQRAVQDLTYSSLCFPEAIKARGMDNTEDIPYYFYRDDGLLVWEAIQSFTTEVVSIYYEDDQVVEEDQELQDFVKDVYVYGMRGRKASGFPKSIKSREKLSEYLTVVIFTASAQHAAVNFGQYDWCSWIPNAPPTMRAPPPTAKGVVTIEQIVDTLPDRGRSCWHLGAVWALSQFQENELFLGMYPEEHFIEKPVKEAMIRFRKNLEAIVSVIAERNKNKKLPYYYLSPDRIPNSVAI

[2] = Inhibition of Prostaglandin G/H synthase activity in sheep seminal vesicle was determined; assay type: tissue-based, Ovis aries
Summary of the method: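 Sheep seminal vesicle microsomes (32 μg protein) were incubated with [14C]arachidonic acid (0.1 μCi/mL) in pH 7.4 phosphate buffer containing glutathione, epinephrine and EDTA for 10 min at 37 °C. Substrate was removed by two hexane/EtOAc extractions, and aqueous-phase radioactivity was counted by scintillation. IC50 is reported with 95% confidence limits.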

IC50 [1] [nM] | IC50 [2] [µM] | SMILES
41 | 41 | COc1ccc(O)c(C(=O)/C=C/c2ccc(O)c(O)c2)c1
15 | – | COc1ccc(C(=O)/C=C/c2ccc(O)c(O)c2)c(O)c1 [CALYTHROPSIN]
